The values that follow come from patent publication US20210380929A1, “METHODS, APPARATUS AND KITS FOR BACTERIAL CELL LYSIS” (TECHNISCHE UNIVERSITÄT WIEN, priority 2018, published 2021).

This test relates to qPCR amplification of a diagnostic fragment of the Enterococcus spp. 23S rRNA gene (DNA plasmid standard). The following applies: IL concentration 762 mM; 10^4 DNA target copies.
Turning to `CCCCOP(=O)([O-])OCCCC.C[N+](C)(C)CCO` [[Cho]DBP, Choline dibutylphosphate], the “inhibitory effect on the qPCR amplification reaction” value (“inhibitory effect” for short) was “completely inhibited the amplification”.
On to `CCCCCCn1cc[n+](C)c1.[Cl-]` [[C6mim]Cl, 1-Hexyl-3-methylimidazolium chloride], for which the “inhibitory effect” value is on record as “substantially interfered with the reaction”.
Regarding `CCCCCC(=O)[O-].C[N+](C)(C)CCO` [[Cho]Hex, Choline hexanoate], the “inhibitory effect” value was “completely inhibited the amplification”.
